From PMC11380579

Chains of the proteins cited; added tags and fusions are not shown. Residues count along the entry.
UniProt Q9P7T4, 651-900: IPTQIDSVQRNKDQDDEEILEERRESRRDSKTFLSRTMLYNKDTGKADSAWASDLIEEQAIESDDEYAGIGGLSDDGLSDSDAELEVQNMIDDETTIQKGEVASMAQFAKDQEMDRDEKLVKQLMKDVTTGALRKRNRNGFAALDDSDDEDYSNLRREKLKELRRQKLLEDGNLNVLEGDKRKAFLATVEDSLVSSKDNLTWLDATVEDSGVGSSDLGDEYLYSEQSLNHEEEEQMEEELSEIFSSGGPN

Molecular target: Mrc1-(651–900) (S. pombe) (UniProt Q9P7T4)
Test: mass photometry; Refeyn TwoMP; 10–20 nM of the samples eluted from the Superdex 200 column; 20 mM HEPES-KOH pH 7.5, 500 mM NaCl

stoichiometry N (Mrc1-like domain per H3-H4 tetramer): 1
Substance: histone H3-H4 tetramer (from UniProt P09988 1-136; P09322 1-103) (complex)
